Data as given in PubChem BioAssay AID1422 (Emory University Molecular Libraries Screening Center, 2008).
Values joined by “and” are separate entries in the source; they are usually repeats but may differ in a detail not shown here. Identical values can stand only once. This is a selection; strong and weak results do not stand in their true shares. Active and inactive are the calls of the source.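 The calls were made as follows: active = percent inhibition above 40 after rounding to a whole number; inactive = the rest.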

Chains of the proteins cited; added tags and fusions are not shown. Lines headed by an entry give the natural chain unless they say otherwise; changes in a name come on top.
UniProt P43116: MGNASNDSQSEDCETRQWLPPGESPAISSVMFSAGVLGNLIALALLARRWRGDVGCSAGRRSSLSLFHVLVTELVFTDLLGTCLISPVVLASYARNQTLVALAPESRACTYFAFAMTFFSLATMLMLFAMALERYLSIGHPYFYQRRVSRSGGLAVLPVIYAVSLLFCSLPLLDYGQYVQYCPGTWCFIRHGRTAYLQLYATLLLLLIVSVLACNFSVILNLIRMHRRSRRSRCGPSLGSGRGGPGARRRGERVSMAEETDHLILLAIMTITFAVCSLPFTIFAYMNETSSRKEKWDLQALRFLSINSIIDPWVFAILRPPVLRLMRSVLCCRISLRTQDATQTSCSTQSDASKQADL

What follows are compounds tested against Prostaglandin E2 receptor EP2 subtype (Homo sapiens) (UniProt P43116) (assay: human EP2 receptor antagonists, primary screen, TR-FRET cAMP, C6 glioma cells (AID 1422;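 also: rat C6 glioma host cells with rolipram phosphodiesterase inhibitor present; the protocol text gives 20 µM as final concentration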)). Details: C6 glioma cells expressing human EP2, cAMP TR-FRET; at 25 µM; stronger effect = higher value; cells stimulated with saturating PGE2.
In the case of `Nc1ccc([As](=O)(O)c2ccc(N)cc2)cc1`, the inhibition is reported as inactive: 10.7%.
With `CCN(/C(=N/P(=O)(N1CCOCC1)N1CCOCC1)N1CCOCC1)c1ccc(OC)cc1` the inhibition was inactive: 6.36%.
`CC(=O)N1C2C3N(C(C)=O)C1C1N(C(C)=O)C(C(N1C(C)=O)N3C(C)=O)N2C(C)=O` was tested, and the inhibition was inactive: 12%.
`O=[N+]([O-])c1cccc2n[nH]nc12` was tested, and the inhibition was inactive: 13%.
In the case of `O=[N+]([O-])c1cc([N+](=O)[O-])c(CCNc2ccccc2)c([N+](=O)[O-])c1`, the inhibition is reported as inactive: 3.74%.
For `CCc1nc2c(n1)c1c(non1O)c1c2no[n+]1[O-]`, the inhibition was inactive: 14.6%.
`Cc1ccc(NP(=O)(Oc2ccccc2)Oc2ccccc2)nc1` was tested, and the inhibition was inactive: 2.75%.
In the case of `COc1ccc(C2=NCC(CBr)S2)cc1` (stereo unspecified), the inhibition is reported as inactive: 2.54%.
With `O=[N+]([O-])c1cccc(NC2=NCC(CBr)S2)c1` (stereo unspecified) the inhibition was inactive: 3.24%.
With `O=C(O)CNc1ccc([As](=O)(O)O)cc1` the inhibition was inactive: 1.97%.
`CC(C)(C)C(=O)NC(Sc1ccncn1)C(Cl)(Cl)Cl` (stereo unspecified) was tested, and the inhibition was inactive: 8.37%.
With `O=[N+]([O-])c1ncn(CCn2ncnc2[N+](=O)[O-])n1` the inhibition was inactive: 1.53%.
For `O=C(Nc1cc([As](=O)(O)O)ccc1O)c1ccccc1`, the inhibition was inactive: 16.8%.
`Nc1ccc([As](=O)(O)c2ccc([N+](=O)[O-])cc2)cc1` was tested, and the inhibition was inactive: 7.72%.
With `C(Cc1nn[nH]n1)Cc1nn[nH]n1` the inhibition was inactive: 13.9%.
For `O=C(OC1CN2CCC1CC2)c1cccc(Cl)c1` (stereo unspecified), the inhibition was inactive: 5.79%.
`CC(=O)NC(SC(=S)N(C)C)C(Cl)(Cl)Cl` (stereo unspecified) was tested, and the inhibition was inactive: 3.98%.
In the case of `O=[N+]([O-])c1ncn(CCn2cnc([N+](=O)[O-])n2)n1`, the inhibition is reported as inactive: 7.11%.
In the case of `O=[As](O)(c1ccccc1)c1ccc(O)cc1`, the inhibition is reported as inactive: 6.89%.
In the case of `C[C@H]1OP(=O)(Oc2ccccc2)[C@H](O)[C@H](O)[C@H]1N=[N+]=[N-]` (stereo partly specified), the inhibition is reported as inactive: 8.2%.
In the case of `O=P(Nc1nc2ccccc2s1)(c1ccccc1)c1ccccc1`, the inhibition is reported as inactive: 5.71%.
For `[N-]=[N+]=Nc1ccc([As](=O)(O)O)cc1`, the inhibition was inactive: 6.55%.
With `O=P(Nc1ccccn1)(c1ccc(Br)cc1)c1ccc(Br)cc1` the inhibition was inactive: 9.62%.
In the case of `C[C@@H](O)COc1ccc([As](=O)(O)O)cc1N`, the inhibition is reported as inactive: 13.2%.
For `COc1ccc(/C=C2/C(=O)NC(=O)N(Cc3ccco3)C2=O)c(OC)c1`, the inhibition was inactive: 9.33%.
For `CN1CCC[C@H](OC(=O)C(c2ccccc2)c2ccccc2)C1`, the inhibition was inactive: 9.85%.
In the case of `c1nnnn1CCn1cnnn1`, the inhibition is reported as inactive: 19.9%.
With `O=P(Nc1nccs1)(c1ccccc1)c1ccccc1` the inhibition was inactive: 8.71%.
With `CC(C)C(=O)NC(Sc1ccccc1)C(Cl)(Cl)Cl` (stereo unspecified) the inhibition was inactive: 1.95%.
With `CC(=O)Nc1ccc(Oc2c([N+](=O)[O-])cc([N+](=O)[O-])cc2[N+](=O)[O-])cc1` the inhibition was inactive: 4.6%.
For `CC(=O)Nc1ccc([As](=O)(O)O)c(O)c1`, the inhibition was inactive: 15%.
With `C[C@@H]1C=CCP(=O)(Oc2ccccc2)O1` (stereo partly specified) the inhibition was inactive: 14.4%.
In the case of `C[C@H]1OP(=O)(Oc2ccccc2)C[C@@H]2O[C@@H]21` (stereo partly specified), the inhibition is reported as inactive: 14.3%.
In the case of `CC(C)(C)C(=O)NC(Sc1ccccc1)C(Cl)(Cl)Cl` (stereo unspecified), the inhibition is reported as inactive: 1.44%.
With `CCOc1ccc(C2=NCC(CBr)S2)cc1` (stereo unspecified) the inhibition was inactive: 2.71%.
With `O=P1(Nc2nc3ccc(Cl)cc3s2)COc2ccccc2O1` (stereo unspecified) the inhibition was inactive: 5.66%.
For `CN(C)C(=O)Oc1noc2ccccc12`, the inhibition was inactive: 0.2%.
For `O=c1c2cc([N+](=O)[O-])ccc2[nH]c2c([N+](=O)[O-])cc([N+](=O)[O-])cc12`, the inhibition was inactive: 22.6%.
`Cc1ccccc1OP(=O)(Nc1ccccn1)Oc1ccccc1C` was tested, and the inhibition was inactive: 5.91%.
With `CC(=O)NC(SC(=S)N(CC(C)C)CC(C)C)C(Cl)(Cl)Cl` (stereo unspecified) the inhibition was inactive: 4.82%.
With `Cc1ccc(OP(=O)(Nc2ccccn2)Oc2ccc(C)cc2)cc1` the inhibition was inactive: 2.9%.
With `COC(=O)c1cc2c(s1)N=C(c1ccccc1)N(C)P2(=O)N1CCOCC1` (stereo unspecified) the inhibition was inactive: 5.97%.
With `CCC(=O)N1C2C3N(C(=O)CC)C1C1N(C(=O)CC)C(C(N1C(=O)CC)N3C(=O)CC)N2C(=O)CC` the inhibition was inactive: 12.1%.
For `CN(C(=O)Cc1ccc(Cl)c(Cl)c1)[C@@H]1CCCC[C@@H]1N1CCCC1`, the inhibition was inactive: 14.4%.
With `O=c1[nH]cc(S(=O)(=O)F)c(=O)[nH]1` the inhibition was inactive: 16.1%.
With `O=C(NC1CCS(=O)(=O)C1)NP(=S)(Oc1ccccc1)Oc1ccccc1` (stereo unspecified) the inhibition was inactive: 5.42%.
`CCNC(=S)/N=C(\N)N[N+](=O)[O-]` was tested, and the inhibition was inactive: 8.2%.
With `Cc1ccc(NP(=O)(Oc2cccc(C)c2)Oc2cccc(C)c2)nc1` the inhibition was inactive: 3.77%.
With `CCOC(=O)NC(Sc1ccccc1)C(Cl)(Cl)Cl` (stereo unspecified) the inhibition was inactive: 2.91%.
In the case of `c1ccc(-c2nn[nH]n2)c(-c2nn[nH]n2)c1`, the inhibition is reported as inactive: 9.52%.
In the case of `CN(C(=O)Cc1ccc(Cl)c(Cl)c1)[C@H]1CC[C@@]2(CCCO2)C[C@@H]1N1CCCC1`, the inhibition is reported as inactive: 14.1%.
In the case of `O=[N+]([O-])c1ccc2c(c1)nnn2O`, the inhibition is reported as inactive: 4.05%.
With `CCOP1(=S)c2c(C)nn(CCC#N)c2N=C(c2ccc(F)cc2)N1C` (stereo unspecified) the inhibition was inactive: -1.66%.
In the case of `CN(C(=O)Cc1ccccc1)[C@@H]1CC[C@]2(CCCO2)C[C@H]1N1CCCC1`, the inhibition is reported as inactive: 12.4% and inactive: 17.2%.
With `NC(=O)c1nsnc1NCCCl` the inhibition was inactive: 5.79%.
With `NC(=O)Nc1ccc([As](=O)(O)O)cc1` the inhibition was inactive: 16.2%.
For `O=C(O)COc1ccc([As](=O)(O)O)cc1[N+](=O)[O-]`, the inhibition was inactive: 8.98%.
`Nc1ccccc1[As](=O)(O)c1ccccc1` was tested, and the inhibition was inactive: 7.93%.
With `O=[As](O)(O)c1ccc([As](=O)(O)O)cc1` the inhibition was inactive: 7.02%.
In the case of `CS(=O)(=O)c1cc([N+](=O)[O-])c2no[n+]([O-])c2c1`, the inhibition is reported as inactive: 17.3%.
For `O=P(Nc1nccs1)(c1ccccc1)c1nc2ccccc2s1` (stereo unspecified), the inhibition was inactive: 7.12%.
With `O=P(Nc1nccs1)(Oc1ccccc1)Oc1ccccc1` the inhibition was inactive: 7.77%.
With `CCOP1(=S)c2c(C)nn(CCC#N)c2N=C(c2ccccc2F)N1C` (stereo unspecified) the inhibition was inactive: 9.25%.
With `CCOP(=O)(Nc1cccc2ccccc12)OCC` the inhibition was inactive: 3.65%.
In the case of `COc1cc(C2NCCC3(OCCO3)C2(C)C)cc(OC)c1OC` (stereo unspecified), the inhibition is reported as inactive: 6.8%.
`CCCOP(=S)(Nc1nc(N)cc(=O)[nH]1)OCCC` was tested, and the inhibition was inactive: 1.99%.
For `O=C(CC(=O)c1ccccc1)O[C@H]1CN2CCC1CC2`, the inhibition was inactive: 13%.
In the case of `Cc1ccc(NCCc2c([N+](=O)[O-])cc([N+](=O)[O-])cc2[N+](=O)[O-])cc1`, the inhibition is reported as inactive: -1.23%.
`Nc1cccc2c([As](=O)(O)O)cccc12` was tested, and the inhibition was inactive: 0.36%.
In the case of `NS(=O)(=O)Cc1ccc([As](=O)(O)O)cc1`, the inhibition is reported as inactive: 12.3%.
In the case of `O=[As](O)(c1cccc(O)c1)c1cccc(O)c1`, the inhibition is reported as inactive: 8.67%.
`Cc1cccc(OCC(=O)OC2CN3CCC2CC3)c1` (stereo unspecified) was tested, and the inhibition was inactive: 1.21%.
With `COc1cc(C(=O)NCC2(N3CCOCC3)CCCCC2)cc(Cl)c1OC(C)C` the inhibition was inactive: 3.37%.
In the case of `O=[As](O)(O)c1cccnc1`, the inhibition is reported as inactive: 3.54%.
In the case of `CN(C(=O)Cc1ccc(Cl)c(Cl)c1)[C@@H]1CC[C@]2(CCCO2)C[C@H]1N1CCCC1`, the inhibition is reported as inactive: 14.7%.
In the case of `O=C(OC1CN2CCC1CC2)c1ccc(Cl)cc1` (stereo unspecified), the inhibition is reported as inactive: 12%.
With `COC(=O)c1nsnc1NCCCl` the inhibition was inactive: 8.19%.
In the case of `CC1(CBr)Cn2c(nc3ccccc3c2=O)S1` (stereo unspecified), the inhibition is reported as inactive: -2.69%.
With `O=[As](O)(c1ccccc1Br)c1ccccc1Br` the inhibition was inactive: 7.75%.
In the case of `CN(C(=O)Cc1ccc(Cl)c(Cl)c1)[C@@H]1CCCC[C@H]1N1CCCC1`, the inhibition is reported as inactive: 15.8% and inactive: 12.7%.
In the case of `CC(C)/C=N\N=C(\N)N[N+](=O)[O-]`, the inhibition is reported as inactive: 1.17%.
For `CC(C)(C)C(=O)NC(Sc1ncccn1)C(Cl)(Cl)Cl` (stereo unspecified), the inhibition was inactive: 10.2%.
For `Clc1n[nH]nc1-c1nn[nH][15n]1`, the inhibition was inactive: 7.11%.
In the case of `CN(CCCl)Cc1cc(Cl)c(NC2=NCCN2)c(Cl)c1`, the inhibition is reported as inactive: 8.54% and inactive: 16.7%.
In the case of `CCOP(=O)(Nc1ccc(C)cn1)OCC`, the inhibition is reported as inactive: 4.15%.
With `O=P1(Nc2ccccn2)COc2ccccc2OC1` the inhibition was inactive: 7.14%.
With `O=P1(Nc2ccc(Br)cn2)COc2ccccc2OC1` the inhibition was inactive: 19%.
In the case of `Cc1ccc(OCC(=O)OC2CN3CCC2CC3)cc1` (stereo unspecified), the inhibition is reported as inactive: 9.54%.
For `O=[As](O)(c1cccs1)c1cccs1`, the inhibition was inactive: 5.22%.
For `Nc1cccc([As](=O)(O)c2ccccc2)c1`, the inhibition was inactive: 4.31%.
For `O=P1(Nc2ncccn2)COc2ccccc2OC1`, the inhibition was inactive: 5.61%.
`O=C(/C=C/c1ccccc1)OC1CN2CCC1CC2` (stereo unspecified) was tested, and the inhibition was inactive: 6.48%.
For `CN(C)C1(CNC(=O)c2ccc(S(C)(=O)=O)cc2)CCCCC1`, the inhibition was inactive: 7.78%.
`CC1CCC(C(C)C)C(OP(=O)(Nc2ccccn2)c2ccccc2)C1` (stereo unspecified) was tested, and the inhibition was inactive: 4.97%.
`Cc1nn(-c2ccccc2)c2c1P(=O)(N1CCOCC1)N(C)C(c1ccccc1)=N2` (stereo unspecified) was tested, and the inhibition was inactive: 9.64%.
In the case of `O=[N+]([O-])c1ccc(Nc2ccc(Oc3ccc([N+](=O)[O-])cc3[N+](=O)[O-])cc2)c([N+](=O)[O-])c1`, the inhibition is reported as inactive: 5.67%.
In the case of `Cc1cc(SC(NC=O)C(Cl)(Cl)Cl)ncn1` (stereo unspecified), the inhibition is reported as inactive: 9.99%.
With `O=P(Nc1ccccn1)(c1cccc2ccccc12)c1cccc2ccccc12` the inhibition was inactive: 5.33%.
`CCOC(=O)Nc1cccc([As](=O)(O)O)c1` was tested, and the inhibition was inactive: 8.56%.
`Cc1cc(SC(NC(=O)c2ccccc2)C(Cl)(Cl)Cl)nc(C(C)C)n1` (stereo unspecified) was tested, and the inhibition was inactive: 7.3%.
In the case of `Cc1ccc(N2C(=O)/C(=C/c3cn(CC(=O)NCc4ccco4)c4ccccc34)C(=O)NC2=S)cc1`, the inhibition is reported as inactive: 15.2%.
